Experimental data from patent US8129388B2, “Therapeutic agents useful for treating pain” (Purde Pharma L.P., priority 2003, dated 2012).

Protein sequences, listed by entry. Tags and fused reporters are not part of them.
UniProt Q8NER1, whole entry: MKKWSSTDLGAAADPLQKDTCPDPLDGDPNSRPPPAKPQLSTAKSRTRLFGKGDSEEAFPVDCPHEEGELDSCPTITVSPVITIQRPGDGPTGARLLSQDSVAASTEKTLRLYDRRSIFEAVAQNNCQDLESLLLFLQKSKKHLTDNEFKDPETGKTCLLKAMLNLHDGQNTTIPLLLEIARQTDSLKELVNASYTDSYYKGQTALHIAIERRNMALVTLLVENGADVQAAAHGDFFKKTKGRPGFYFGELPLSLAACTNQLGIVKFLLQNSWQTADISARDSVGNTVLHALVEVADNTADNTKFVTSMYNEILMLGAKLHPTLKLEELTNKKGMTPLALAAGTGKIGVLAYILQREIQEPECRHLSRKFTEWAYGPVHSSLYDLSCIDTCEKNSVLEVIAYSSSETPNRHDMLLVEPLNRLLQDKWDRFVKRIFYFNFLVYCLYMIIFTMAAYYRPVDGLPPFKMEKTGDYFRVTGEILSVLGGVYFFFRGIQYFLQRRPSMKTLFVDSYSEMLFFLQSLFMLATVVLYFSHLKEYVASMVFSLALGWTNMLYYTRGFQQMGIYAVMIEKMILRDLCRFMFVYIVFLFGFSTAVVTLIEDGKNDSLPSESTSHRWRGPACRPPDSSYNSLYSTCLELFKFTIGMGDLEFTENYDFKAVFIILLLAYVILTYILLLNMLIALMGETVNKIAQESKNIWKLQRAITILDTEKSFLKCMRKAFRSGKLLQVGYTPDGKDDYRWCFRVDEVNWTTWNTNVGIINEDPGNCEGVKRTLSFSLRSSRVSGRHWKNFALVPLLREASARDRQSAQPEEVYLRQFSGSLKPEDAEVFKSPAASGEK

What was measured:
human VR1 [1] = biological target: T1, human VR1 (Homo sapiens, UniProt Q8NER1); assay: pH-based assay of VR1 inhibition (Fluo-4 calcium, FLIPR); type: cell-based
T1 construct: expressed in transfected cells
Procedure: (§1) Human VR1 Cloning: Human spinal cord RNA (commercially available from Clontech, Palo Alto, Calif.) was used. Reverse transcription was conducted on 1.0 μg total RNA using Thermoscript Reverse Transcriptase (commercially available from Invitrogen) and oligo dT primers as detailed in its product description. Reverse transcription reactions were incubated at 55° C. for 1 h, heat-inactivated at 85° C. for 5 min, and RNase H-treated at 37° C. for 20 min.
(§2) Human VR1 cDNA sequence was obtained by comparison of the human genomic sequence, prior to annotation, to the published rat sequence. Intron sequences were removed and flanking exonic sequences were joined to generate the hypothetical human cDNA. Primers flanking the coding region of human VR1 were designed as follows: forward primer, […]; and reverse primer, […]. […]
(§3) Generation of Inducible Cell Lines: Unless noted otherwise, cell culture reagents were purchased from Life Technologies of Rockville, Md. […] On the day of assay, cells were loaded with Fluo-4 (a calcium-sensitive dye that is commercially available from Molecular Probes) and CAP-mediated calcium influx was measured using a FLIPR as described below. […]

human VR1 [2] = biological target: T1, human VR1; assay: Capsaicin-based assay of VR1 inhibition (Fluo-4 calcium, FLIPR); type: cell-based
Procedure: as §1, §2, §3

IC50 (human VR1 [1]): 11.2 ± 5.5 nM
IC50 (human VR1 [2]): 128 ± 26 nM
Structure (SMILES): Cc1cccnc1-c1ccc(C(=O)Nc2ccc(C(C)(C)C)cc2)cc1 [Compound E35]
